From PubChem BioAssay
GIV Gai3 FP – blocks GIV peptide binding to rat Galpha-i3. P08753. Galpha-i3/FITC-GIV peptide fluorescence polarization, 90 min; stronger effect = lower value; scaled: aluminum fluoride 0%, vehicle 100%. percent of control (FP), % (test concentration not listed). 0.42% of 210,000 active. AID 1224905;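 active = replicate mean at 85% of control or lower, very high polarization wells dropped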;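 also: wells of about 15 µL received 100 nL stock; the first replicate is given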
HCMV UL50-53 inh – inhibitors of HCMV UL50-UL53 nuclear egress complex interaction; HTRF UL50-UL53 interaction, normalized percent inhibition; inhibition, % (no concentration beside the values); 190,000 compounds, 0.15% hits; AID 1918969; in the data active = inhibition above about 27%, passing the limit was not always enough
GIV Gai FP conf – GIV-Galpha-i3 inhibition, FP confirmation; shares compounds with GIV Gai3 FP; FITC-GIV peptide binding to Galphai3, fluorescence polarization; hits give low values; fluorescence polarization, mP at 100 µM; 580 compounds, 38% hits; AID 1259350;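 active = inhibition score of 15 or more, meaning 100 minus mean polarization as percent of control over three replicates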;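 note: lower mP means peptide displaced from Galphai3 so more inhibition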
GIV-Gai AS conf – confirmation of inhibitors of GIV binding to human Galpha-i3. shares compounds with GIV Gai3 FP. AlphaScreen Galphai3-GIV binding, purified proteins, 90 min; hits give low values. AlphaScreen counts at 100 µM. 580 compounds, 39% hits;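 active = inhibition score at or above a set limit, where the score is 100 minus the three-replicate mean percent of control signal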
Starred values were filed as active, the others as inactive. Sampled rows, rich in hits. Any-hit rate of the full collection: about 0.43%.

How did O=C(NC1CCN(Cc2ccccc2)CC1)C1CCCN(c2ccnc(-c3ccc(F)cc3)n2)C1 (configuration not stated) do in these assays?
GIV Gai3 FP: 112; HCMV UL50-53 inh: -25

What do the screens show for `CC(=O)Nc1ccc2c(c1)C1C=CCC1C(C(=O)O)N2` (configuration not stated)?
GIV Gai3 FP: 188; HCMV UL50-53 inh: -58

Results for O=C(O)C1Nc2c(I)cccc2C2C=CCC12 (configuration not stated) ?
GIV Gai3 FP: 43*; HCMV UL50-53 inh: 14; GIV Gai FP conf: 36*; GIV-Gai AS conf: 1672*

What do the screens show for `Cc1c(/C=N/N=c2\sc3ccccc3n2C)n(C)n(-c2ccccc2)c1=O`?
HCMV UL50-53 inh: -24

What do the screens show for `CN(C)c1ccc(/C=C/C=N/N=c2/sc3ccccc3n2C)cc1`?
GIV Gai3 FP: 98; HCMV UL50-53 inh: -11; GIV Gai FP conf: 86; GIV-Gai AS conf: 34665

What do the screens show for `O=C(O)c1cc(C(=O)O)c2cccc(Cl)c2n1`?
HCMV UL50-53 inh: -27

Results for CC(C(=O)O)N1C(=O)/C(=C/c2ccco2)SC1=S (configuration not stated) ?
GIV Gai3 FP: 75*; HCMV UL50-53 inh: -66; GIV Gai FP conf: 55*; GIV-Gai AS conf: 3227*

How did Cc1ccc(/C=C2\SC(=S)N(C(CCC(=O)O)C(=O)O)C2=O)cc1 (configuration not stated) do in these assays?
HCMV UL50-53 inh: -68

What do the screens show for `CC(C(=O)O)N1C(=O)/C(=C\c2ccco2)SC1=S` (configuration not stated)?
HCMV UL50-53 inh: -62

Results for O=C(O)CCC(C(=O)O)N1C(=O)/C(=C/C=C/c2ccco2)SC1=S (configuration not stated) ?
GIV Gai3 FP: 39*; HCMV UL50-53 inh: 75*; GIV Gai FP conf: 47*; GIV-Gai AS conf: 2132*

How did O=C(O)c1cccc(N2C(=O)/C(=C\C=C\c3ccco3)SC2=S)c1 do in these assays?
GIV Gai3 FP: 74*; HCMV UL50-53 inh: -11; GIV Gai FP conf: 71; GIV-Gai AS conf: 35403

How did O=C(O)c1cccc(N2C(=O)/C(=C/c3ccccc3)SC2=S)c1 do in these assays?
HCMV UL50-53 inh: -5

3 compounds drawn at random from those above:
What do the screens show for `CN(C)c1ccc(/C=C/C=N/N=c2/sc3ccccc3n2C)cc1`?
GIV Gai3 FP: 98; HCMV UL50-53 inh: -11; GIV Gai FP conf: 86; GIV-Gai AS conf: 34665

What do the screens show for `CC(=O)Nc1ccc2c(c1)C1C=CCC1C(C(=O)O)N2` (configuration not stated)?
GIV Gai3 FP: 188; HCMV UL50-53 inh: -58

How did O=C(NC1CCN(Cc2ccccc2)CC1)C1CCCN(c2ccnc(-c3ccc(F)cc3)n2)C1 (configuration not stated) do in these assays?
GIV Gai3 FP: 112; HCMV UL50-53 inh: -25

Remaining list, next part.
What do the screens show for `CC(C)C(C(=O)O)N1C(=O)/C(=C/C=C/c2ccco2)SC1=S` (configuration not stated)?
GIV Gai3 FP: 58*; HCMV UL50-53 inh: 82*; GIV Gai FP conf: 54*; GIV-Gai AS conf: 1448*

How did Cc1ccc(/C=C2\SC(=S)N(C(C(=O)O)C(C)C)C2=O)cc1 (configuration not stated) do in these assays?
GIV Gai3 FP: 103

What do the screens show for `COCCn1c(=O)/c(=C\c2ccccc2OC(F)F)s/c1=C(/C#N)C(=O)N1CCOCC1`?
HCMV UL50-53 inh: -13

Results for CC(C)(C)C(=O)c1sc2c(c1N)c(=O)[nH]c(=O)n2C1CCCCC1 ?
HCMV UL50-53 inh: -1

Results for Cc1ccc(NC(=O)Nc2cccc(OCc3cc(=O)n4ccccc4n3)c2)cc1Cl ?
GIV Gai3 FP: 103

What do the screens show for `Cc1ccc(Sc2ccc(N3CCCC(C(=O)N4CCN(c5ccccn5)CC4)C3)nn2)cc1` (configuration not stated)?
GIV Gai3 FP: 107; HCMV UL50-53 inh: -32

What do the screens show for `O=c1c2ccccc2c2nc3c(c(-c4cccc(Br)c4)c12)c(=O)c1ccccc13`?
GIV Gai3 FP: 111

Results for C=CCn1c(CNC(=O)Cc2ccccc2)nc2ccccc21 ?
HCMV UL50-53 inh: -8

What do the screens show for `CN1CCN(C(=O)c2ccc(/C=C3/SC(=S)N(C)C3=O)cc2)CC1`?
GIV Gai3 FP: 106; HCMV UL50-53 inh: -74

How did Cc1cc2nc3c(=O)n(C)c(=O)n(C)c3nc2cc1N do in these assays?
GIV Gai3 FP: 95

How did Cn1c(=O)c2nc3ccc(NC(=O)C(F)(F)F)cc3nc2n(C)c1=O do in these assays?
GIV Gai3 FP: 79*; HCMV UL50-53 inh: -74; GIV Gai FP conf: 67; GIV-Gai AS conf: 29111

Results for Cc1nc(N2CCCC2)nc2oc(-c3ccccc3)nc12 ?
GIV Gai3 FP: 115; HCMV UL50-53 inh: -31

How did Cc1nc(N2CCN(c3ccccn3)CC2)nc2oc(-c3ccccc3)nc12 do in these assays?
GIV Gai3 FP: 93; HCMV UL50-53 inh: -16; GIV Gai FP conf: 98; GIV-Gai AS conf: 26416

Results for Cc1nnsc1C(=O)N1CCc2[nH]c3ccc(F)cc3c2C1 ?
GIV Gai3 FP: 99; HCMV UL50-53 inh: -12

How did C=CCNC(=O)N1CCc2[nH]c3ccc(F)cc3c2C1 do in these assays?
GIV Gai3 FP: 85*; HCMV UL50-53 inh: -36; GIV Gai FP conf: 59*; GIV-Gai AS conf: 37919
